Experiments:
[1] = target: 5-HT1E receptor (Homo sapiens, UniProt P28566); assay: pKi for 5HT1E receptor (Table 1); format: binding
[2] = target: D2 dopamine receptor (Homo sapiens, UniProt P14416); assay: pKi for dopamine receptor D2 (Table 1); format: binding

By UniProt entry, the sequences of proteins in these tests, tags left out. Where a name states a change or a piece, a line headed by the entry shows the natural chain unless it says otherwise.
UniProt P28566: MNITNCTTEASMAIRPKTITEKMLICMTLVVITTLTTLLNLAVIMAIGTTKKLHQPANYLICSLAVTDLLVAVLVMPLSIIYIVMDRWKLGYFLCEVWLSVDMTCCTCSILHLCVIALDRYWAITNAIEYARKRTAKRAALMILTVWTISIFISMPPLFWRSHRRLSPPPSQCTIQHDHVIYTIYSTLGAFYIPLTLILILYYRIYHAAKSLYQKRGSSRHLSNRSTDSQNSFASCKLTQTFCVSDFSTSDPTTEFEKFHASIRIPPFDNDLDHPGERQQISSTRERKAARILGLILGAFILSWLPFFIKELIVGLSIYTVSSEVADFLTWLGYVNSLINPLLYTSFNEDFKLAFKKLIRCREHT
UniProt P14416, whole entry: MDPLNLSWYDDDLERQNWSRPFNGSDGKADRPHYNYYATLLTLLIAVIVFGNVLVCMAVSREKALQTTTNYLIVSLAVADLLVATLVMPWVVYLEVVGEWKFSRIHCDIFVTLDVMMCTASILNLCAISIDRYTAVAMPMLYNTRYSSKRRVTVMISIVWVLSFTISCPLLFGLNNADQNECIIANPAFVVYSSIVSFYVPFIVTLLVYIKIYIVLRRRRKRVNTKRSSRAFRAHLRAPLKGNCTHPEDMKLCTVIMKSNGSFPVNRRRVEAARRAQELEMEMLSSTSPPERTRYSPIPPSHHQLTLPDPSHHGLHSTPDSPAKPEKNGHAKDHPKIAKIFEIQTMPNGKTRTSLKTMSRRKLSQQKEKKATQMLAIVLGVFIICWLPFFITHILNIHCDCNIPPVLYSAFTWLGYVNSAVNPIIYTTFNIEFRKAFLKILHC

| SMILES | Ki [1] [µM] | pKi D2 [2] |
| --- | --- | --- |
| Cc1nc2n(c(=O)c1CCN1CCC(c3noc4cc(F)ccc34)CC1)CCCC2 [Risperidone] | > 1 | – |
| CCN1CCC[C@H]1CNC(=O)c1c(O)c(Cl)cc(Cl)c1OC (racemic) [Raciopride] | – | 8-9 |
